1 compound from patent US20250091990A1, “DEUTERATED ORGANIC COMPOUNDS AND USES THEREOF” (ENGRAIL THERAPEUTICS, INC., priority 2022, published 2025) can be followed below.

The series concerns Adult male Wistar rats. As to the kind of experiment: Conditioned Avoidance Response test. The class given is in vivo, rat. Particulars: 0.5 mg/kg i.p., 30 minutes prior to test. The source says: Example 8—Conditioned Avoidance Response Adult male Wistar rats are used.

For the compound `Cc1nc2n(c(=O)c1CCN1CCC(c3noc4cc(F)ccc34)CC1)CCCC2` [risperidone], the “Escape failures compared to vehicle” value is “increases escape failures”.
